The numbers were not newly measured in patent US10624877B2, “Composition and method for treatment of symptoms associated with various skin conditions” (priority 2011, dated 2020), which cites them from elsewhere.

For data set [1] the following is noted: in vivo; cited from earlier work.
For data set [2] the following is noted: in vivo; cited from earlier work. This is another data set of the same source.
The conditions of data set [3]: in vivo; cited from earlier work. This is another data set of the same source.
A further data set relates to skin. To be noted: human exposure studies and clinical experience; cited from earlier work.

As to PEG-2 stearate, the phototoxicity or photosensitization result in data set [1] is “no evidence of phototoxicity or photosensitization”.
For PEG-8 stearate, the “changes in growth, histopathologic observations or hematologic values” in data set [2] is on record as “no significant changes”. In addition, the effects on reproduction entry in data set [3] is “negative for effects on reproduction”. Further, the phototoxicity or photosensitization entry in data set [1] is listed as “no evidence of phototoxicity or photosensitization”.
In the case of glyceryl stearate SE, the “sensitization, phototoxicity, photosensitization” value in the data set with skin was “non-sensitizing, non-phototoxic and non-photosensitizing”.
